{"sequences": {"note": "By UniProt entry, the sequences of proteins in these tests, tags left out. Where a name states a change or a piece, a line headed by the entry shows the natural chain unless it says otherwise.", "UniProt Q9UNA4": "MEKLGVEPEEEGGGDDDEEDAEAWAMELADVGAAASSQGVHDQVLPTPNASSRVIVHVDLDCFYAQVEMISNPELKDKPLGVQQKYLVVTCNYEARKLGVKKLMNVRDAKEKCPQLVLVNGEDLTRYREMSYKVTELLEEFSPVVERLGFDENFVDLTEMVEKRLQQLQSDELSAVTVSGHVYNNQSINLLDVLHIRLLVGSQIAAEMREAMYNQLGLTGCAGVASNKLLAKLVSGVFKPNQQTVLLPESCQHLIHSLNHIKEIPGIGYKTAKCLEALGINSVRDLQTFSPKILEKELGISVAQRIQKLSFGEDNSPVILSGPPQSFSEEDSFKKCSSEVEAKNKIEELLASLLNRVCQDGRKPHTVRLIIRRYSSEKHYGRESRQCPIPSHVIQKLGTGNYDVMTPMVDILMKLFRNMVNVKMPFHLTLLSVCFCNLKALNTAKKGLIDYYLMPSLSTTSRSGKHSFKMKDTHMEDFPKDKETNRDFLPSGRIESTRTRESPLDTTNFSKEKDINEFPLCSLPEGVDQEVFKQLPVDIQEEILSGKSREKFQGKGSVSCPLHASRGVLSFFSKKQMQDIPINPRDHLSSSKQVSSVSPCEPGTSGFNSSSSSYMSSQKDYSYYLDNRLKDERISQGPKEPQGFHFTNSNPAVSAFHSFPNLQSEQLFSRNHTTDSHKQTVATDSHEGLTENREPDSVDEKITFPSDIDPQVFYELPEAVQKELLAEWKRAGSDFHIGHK"}, "source": "PubChem BioAssay AID588590", "about": "(National Center for Advancing Translational Sciences (NCATS), 2011)", "note": "The list shows a part of the results, in another mix than the full data. Records with an inconclusive call do not appear. A call without a number means that no potency is given here. Activity calls are given as the source filed them. Calls follow the shape of the dose curve; as a rule, active = well fitted inhibition curve with a large enough effect; inconclusive = small, poorly fitted or top-dose-only effect, or another doubt; inactive = no such curve, though single readings can be large or run the other way. Potency is read from the fitted curve at half-maximal effect."}
{"biological_target": "DNA polymerase iota (Homo sapiens) (UniProt Q9UNA4)", "experiment": "qHTS for Inhibitors of Polymerase Iota", "conditions": "Pol iota fluorescent replication assay, 10 min; series mostly up to 115 µM"}
{"smiles": "CC(C)CC(=O)NC(Sc1ccc(Cl)cc1)C(Cl)(Cl)Cl", "note": "(stereo not drawn)", "Potency": "inactive"}
{"smiles": "O=C(NC(Sc1ccncn1)C(Cl)(Cl)Cl)c1ccccc1", "note": "(stereo not drawn)", "Potency": "inactive"}
{"smiles": "O=[N+]([O-])c1cc2c(cc1[N+](=O)[O-])OCO2", "Potency": "inactive"}
{"smiles": "NC(=O)c1cc([N+](=O)[O-])cc([N+](=O)[O-])c1N", "Potency": "inactive"}
{"smiles": "Cc1ccc(N/C(=N/P(=O)(N2CCOCC2)N2CCOCC2)N2CCOCC2)cc1", "Potency": "inactive"}
{"smiles": "COc1ccccc1OP(=O)(Nc1ccc(C)cn1)Oc1ccccc1OC", "Potency": "inactive"}
{"smiles": "Cc1ccc(OP(=O)(Nc2nccs2)Oc2ccc(C)cc2)cc1", "Potency": "inactive"}
{"smiles": "Clc1ccc(Cl)c(NC2=NCC(CBr)S2)c1", "note": "(stereo not drawn)", "Potency": "inactive"}
{"smiles": "CN1CCCC(OC(=O)C(c2ccccc2)c2ccccc2)C1", "note": "(stereo not drawn)", "Potency": "inactive"}
{"smiles": "Nc1c(O)cc([N+](=O)[O-])cc1[N+](=O)[O-]", "Potency": "inactive"}
{"smiles": "CCN(N=Nc1nonc1N)c1nonc1N", "Potency": "inactive"}
{"smiles": "CC(=O)Nc1ccc([As](=O)(O)O)cc1", "Potency": "inactive"}
{"smiles": "CCCC1OP(N)(=O)OCC1CC", "note": "(stereo not drawn)", "Potency": "inactive"}
{"smiles": "O=P(Nc1nc2ccc(Cl)cc2s1)(c1ccccc1)c1ccccc1", "Potency": "inactive"}
{"smiles": "CCOP(=O)(Nc1ccccc1)OCC", "Potency": "inactive"}
{"smiles": "Cc1cc(SC(NC(=O)c2ccc(F)cc2)C(Cl)(Cl)Cl)ncn1", "note": "(stereo not drawn)", "Potency": "inactive"}
{"smiles": "Cc1ccc(NP(=O)(Oc2ccccc2F)Oc2ccccc2F)nc1", "Potency": "inactive"}
{"smiles": "CN(C(=O)Cc1ccc(Cl)c(Cl)c1)[C@H]1CCCC[C@@H]1N1CCCC1", "Potency": "inactive"}
{"smiles": "CC(C)(C)C(=O)NC(Sc1ccncn1)C(Cl)(Cl)Cl", "note": "(stereo not drawn)", "Potency": "inactive"}
{"smiles": "Cn1c(=O)[nH]c(=O)c2c1nc(Br)n2Cc1ccccc1", "Potency": "inactive"}
{"smiles": "O=[N+]([O-])c1ncn(CCn2ncnc2[N+](=O)[O-])n1", "Potency": "inactive"}
{"smiles": "O=[N+]([O-])c1cccc(NC2=NCC(CBr)S2)c1", "note": "(stereo not drawn)", "Potency": "inactive"}
{"smiles": "COC(=O)C1(C)COP(=O)(Nc2ccccc2)OC1", "note": "(stereo not drawn)", "Potency": "inactive"}
{"smiles": "O=C(O)CNc1ccc([As](=O)(O)O)cc1", "Potency": "inactive"}
{"smiles": "Cc1cc(C=O)ccc1N(CCCl)CCCl", "Potency": "inactive"}
{"smiles": "O=P1(N(CCCl)CCCl)OCCCS1", "note": "(stereo not drawn)", "Potency": "inactive"}
{"smiles": "O=C(Nc1cc([As](=O)(O)O)ccc1O)c1ccccc1", "Potency": "inactive"}
{"smiles": "Nc1ccc([As](=O)(O)c2ccc(N)cc2)cc1", "Potency": "inactive"}
{"smiles": "CCN(/C(=N/P(=O)(N1CCOCC1)N1CCOCC1)N1CCOCC1)c1ccc(OC)cc1", "Potency": "inactive"}
{"smiles": "CC(C)=N/N=C(\\N)N[N+](=O)[O-]", "Potency": "inactive"}
{"smiles": "COc1cc([N+](=O)[O-])c([N+](=O)[O-])cc1OC", "Potency": "inactive"}
{"smiles": "CN(C)C(=O)OCCc1n(C)cc[n+]1C", "Potency": "inactive"}
{"smiles": "CC1CCN(C(=O)Oc2c(Cl)cc(Cl)c3cccnc23)CC1", "Potency": "inactive"}
{"smiles": "COc1ccc(C2=NCC(CBr)S2)cc1", "note": "(stereo not drawn)", "Potency": "inactive"}
{"smiles": "O=[N+]([O-])c1cccc2n[nH]nc12", "Potency": "inactive"}
{"smiles": "CC(=O)N1C2C3N(C(C)=O)C1C1N(C(C)=O)C(C(N1C(C)=O)N3C(C)=O)N2C(C)=O", "Potency": "inactive"}
{"smiles": "Cc1ccc(NP(=O)(Oc2ccccc2)Oc2ccccc2)nc1", "Potency": "inactive"}
{"smiles": "CCc1nc2c(n1)c1c(non1O)c1c2no[n+]1[O-]", "Potency": "active: 10 µM"}
